PubChem BioAssay AID2751 (The Scripps Research Institute Molecular Screening Center, 2010)
The entries are a selection whose mix differs from that of the whole data set. The source made the active and inactive calls. Rule as the data show it: active = inhibition above about 43%; inactive = the rest.

Sequences of proteins named here, by UniProt entry; tags and fusion partners are left off.
UniProt Q4J6C6, whole entry, looked up: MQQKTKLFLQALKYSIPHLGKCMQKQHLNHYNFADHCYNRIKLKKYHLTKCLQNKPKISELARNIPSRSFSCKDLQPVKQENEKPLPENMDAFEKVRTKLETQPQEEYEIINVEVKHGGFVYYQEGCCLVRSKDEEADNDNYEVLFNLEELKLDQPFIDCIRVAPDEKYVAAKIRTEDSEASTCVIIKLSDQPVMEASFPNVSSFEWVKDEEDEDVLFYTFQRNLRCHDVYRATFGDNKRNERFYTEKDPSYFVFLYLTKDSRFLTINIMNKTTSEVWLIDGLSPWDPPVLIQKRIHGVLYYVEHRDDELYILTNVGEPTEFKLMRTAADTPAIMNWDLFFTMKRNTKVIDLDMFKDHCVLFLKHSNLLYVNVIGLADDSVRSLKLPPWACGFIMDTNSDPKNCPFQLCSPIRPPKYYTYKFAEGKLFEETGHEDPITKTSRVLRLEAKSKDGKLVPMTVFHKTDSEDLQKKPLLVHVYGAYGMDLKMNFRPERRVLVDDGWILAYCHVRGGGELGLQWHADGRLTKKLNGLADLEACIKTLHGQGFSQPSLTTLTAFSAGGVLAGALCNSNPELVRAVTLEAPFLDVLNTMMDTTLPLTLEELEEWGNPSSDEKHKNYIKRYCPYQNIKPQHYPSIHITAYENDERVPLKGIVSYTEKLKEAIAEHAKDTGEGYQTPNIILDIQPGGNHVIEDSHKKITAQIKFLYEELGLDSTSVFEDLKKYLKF

Biological target: Prolyl endopeptidase-like (Homo sapiens) (UniProt Q4J6C6)
Experiment: PREPL enzyme inhibitors, primary screen, biochemical, fluorescence polarization (AID 2751);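 also: 0% = enzyme with DMSO and 100% = wells lacking enzyme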
Conditions: recombinant PREPL, fluorescence polarization activity-based probe; at 5.96 µM; stronger effect = higher value

Structure (SMILES)	inhibition
O=P(Nc1nccs1)(c1ccccc1)c1nc2ccccc2s1 (stereo not given)	inactive: -1.92%
CCOP1(=S)c2c(C)nn(CCC#N)c2N=C(c2ccccc2F)N1C (stereo not given)	inactive: 4.67%
Nc1ccccc1[As](=O)(O)c1ccccc1	inactive: 2.52%
O=C(O)COc1ccc([As](=O)(O)O)cc1[N+](=O)[O-]	inactive: 11.7%
NC(=O)Nc1ccc([As](=O)(O)O)cc1	inactive: -1.1%
CN(C(=O)Cc1ccc(Cl)c(Cl)c1)[C@H]1CC[C@@]2(CCCO2)C[C@@H]1N1CCCC1	inactive: 37.7%
O=[N+]([O-])c1ccc2c(c1)nnn2O	inactive: 3.64%
CN(C)C(=O)c1cc([N+](=O)[O-])cc2c1-c1c(cc([N+](=O)[O-])cc1[N+](=O)[O-])C2=O	inactive: 37.1%
CN(C(=O)Cc1ccccc1)[C@@H]1CC[C@]2(CCCO2)C[C@H]1N1CCCC1	inactive: 4.58%
CCOP1(=S)c2c(C)nn(CCC#N)c2N=C(c2ccc(F)cc2)N1C (stereo not given)	inactive: 28.6%
N#CCCN(C(=O)COC(=O)C(O)(c1ccccc1)c1ccccc1)c1ccc(F)cc1	inactive: 6.18%
CS(=O)(=O)c1ccc(Cl)c(NC(=O)COC(=O)C(O)(c2ccccc2)c2ccccc2)c1	inactive: 2.03%
O=[As](O)(O)c1cccnc1	inactive: 12.3%
COc1cc(C(=O)NCC2(N3CCOCC3)CCCCC2)cc(Cl)c1OC(C)C	inactive: 0.7%
O=C(OC1CN2CCC1CC2)c1ccc(Cl)cc1 (stereo not given)	inactive: -7.52%
Cc1cccc(OCC(=O)OC2CN3CCC2CC3)c1 (stereo not given)	inactive: 10.2%
O=[As](O)(c1cccc(O)c1)c1cccc(O)c1	inactive: 1.42%
CCCOP(=S)(Nc1nc(N)cc(=O)[nH]1)OCCC	inactive: 6.33%
Cc1ccc(NCCc2c([N+](=O)[O-])cc([N+](=O)[O-])cc2[N+](=O)[O-])cc1	inactive: 22.5%
Nc1cccc2c([As](=O)(O)O)cccc12	inactive: 33.7%
CCOP(=O)(Nc1cccc2ccccc12)OCC	inactive: 5.73%
COc1cc(C2NCCC3(OCCO3)C2(C)C)cc(OC)c1OC (stereo not given)	inactive: 0.63%
CCOP(=O)(Nc1ccc(C)cn1)OCC	inactive: 11.1%

Structure (SMILES)	inhibition
CN(CCCl)Cc1cc(Cl)c(NC2=NCCN2)c(Cl)c1	inactive: 10.8%
CCOP(=O)(NC(=NC(C)c1ccccc1)NC(C)c1ccccc1)OCC (stereo not given)	inactive: 13.3%
O=P1(Nc2ccccn2)COc2ccccc2OC1	inactive: 4.77%
CCC1=CC2Cc3nc4ccc(Cl)cc4c(N)c3C(C1)C2 (stereo not given)	inactive: 21.6%
CC(C)(C)C(=O)NC(Sc1ncccn1)C(Cl)(Cl)Cl (stereo not given)	inactive: -9.25%
Clc1n[nH]nc1-c1nn[nH][15n]1	inactive: 0.51%
COc1ccccc1CNC(=O)COC(=O)C(O)(c1ccccc1)c1ccccc1	inactive: -0.51%
CC1(CBr)Cn2c(nc3ccccc3c2=O)S1 (stereo not given)	inactive: -13.8%
O=[As](O)(c1ccccc1Br)c1ccccc1Br	inactive: 5.67%
CC(C)/C=N\N=C(\N)N[N+](=O)[O-]	inactive: -8.76%
CN(C(=O)Cc1ccc(Cl)c(Cl)c1)[C@@H]1CCCC[C@H]1N1CCCC1	inactive: 41.7%
CC1CCC(C(C)C)C(OP(=O)(Nc2ccccn2)c2ccccc2)C1 (stereo not given)	inactive: 2.23%
Cc1ccc(C(=O)OC2CN3CCC2CC3)cc1 (stereo not given)	inactive: -18.1%
Cc1nn(-c2ccccc2)c2c1P(=O)(N1CCOCC1)N(C)C(c1ccccc1)=N2 (stereo not given)	inactive: 2.62%
O=C(/C=C/c1ccccc1)OC1CN2CCC1CC2 (stereo not given)	inactive: 1.07%
CN(C)C1(CNC(=O)c2ccc(S(C)(=O)=O)cc2)CCCCC1	inactive: 1.76%
O=P1(Nc2ncccn2)COc2ccccc2OC1	inactive: 1.02%
Cc1ccc(OCC(=O)OC2CN3CCC2CC3)cc1 (stereo not given)	inactive: -7.48%
O=[As](O)(c1cccs1)c1cccs1	inactive: 10.5%
O=P1(Nc2ccc(Br)cn2)COc2ccccc2OC1	inactive: 5.41%
NS(=O)(=O)c1cccc(NC(=O)COC(=O)C(O)(c2ccccc2)c2ccccc2)c1	inactive: -1.45%
Nc1cccc([As](=O)(O)c2ccccc2)c1	inactive: 16.8%
